Values of other authors as cited in patent US20130030007A1, “Obesity Small Molecules” (AKRON MOLECULES GMBH, priority 2010, published 2013).
This is a selection: effects in other tests are not listed, and their absence says nothing.

Tested on: human ortholog of Drosophila obesity gene
Conditions: interaction of the small molecule with the human ortholog(s) / Drosophila gene(s) listed in the same table line; cited from earlier work

SMILES: O=[N+]([O-])c1cc([N+](=O)[O-])c(O)c([N+](=O)[O-])c1
- Type: Type of interaction: B
